According to US20170269061A1, “METHOD FOR ASSESSING SENSITIVITY OF A TARGET DRUG IN VITRO AND A BIOMARKER USED THEREOF” (Tunghai University, priority 2016, published 2017):

Test system: BT-474 cells
Test: Immunofluorescence microscopy of drug localization (Cell Experiment I)
Assay type: cell-based
Conditions: T-DM1 1 μg/ml or trastuzumab 10 μg/ml for 30 min
Description: After washing, each of the cells was fixed with 3.7% formaldehyde and permeabilized with 0.1% Triton-X 100. The fixed cells were incubated with rabbit anti-caveolin-1 antibody (1:100 dilution in PBS/0.1% Triton-100/3% BSA) at room temperature for 1 hour and then incubated with Cy3-conjugated anti-rabbit secondary antibodies (1:200 dilution in PBS/0.1% Triton-100/3% BSA) at room temperature for 1 hour. […] Expression of endocytic protein in each of the cells was observed by immunofluorescence microscopy, the results were shown as FIGS. 9 and 10.

trastuzumab
localization of drug in cells: localized only in the cell membrane
